For one test, the target named is T1, VMAT2 (Homo sapiens, UniProt Q05940).
T1 construct: from tissue
Nature of the test: % VMAT2 blocking by PET scan after oral dosing of human volunteers, Example 1A. In kind it is in vivo. The following applies: average plasma levels of less than 15 ng/ml during the period of PET scanning. From the text:
Complete blocking of VMAT2 is considered undesirable as this can lead to unwanted side effects, such as Parkinsonism. […] The levels of VMAT2 blocking can be determined by competitive binding studies using Positron Emission Tomography (PET). By co-administering a radioactive ligand with the compound of interest at various concentrations, the proportion of binding sites occupied can be determined (see for example, Matthews et al., "Positron emission tomography molecular imaging for drug development", Br. J. Clin. Pharmacol., 73:2, 175-186).
(+)-α-Dihydrotetrabenazine in defined amounts was administered by oral dosing (as a solution in apple juice) to six human volunteers. Blood samples were taken at 30, 60, 120 and 180 minutes after drug administration. At 60 minutes after drug administration, PET scans were initiated and these were stopped at 120 minutes after drug administration.
The experiment was carried out at dosages of 7.5 mg, 15 mg and 22.5 mg.

By UniProt entry, the sequences of proteins in these tests, tags left out.
UniProt Q05940, whole entry: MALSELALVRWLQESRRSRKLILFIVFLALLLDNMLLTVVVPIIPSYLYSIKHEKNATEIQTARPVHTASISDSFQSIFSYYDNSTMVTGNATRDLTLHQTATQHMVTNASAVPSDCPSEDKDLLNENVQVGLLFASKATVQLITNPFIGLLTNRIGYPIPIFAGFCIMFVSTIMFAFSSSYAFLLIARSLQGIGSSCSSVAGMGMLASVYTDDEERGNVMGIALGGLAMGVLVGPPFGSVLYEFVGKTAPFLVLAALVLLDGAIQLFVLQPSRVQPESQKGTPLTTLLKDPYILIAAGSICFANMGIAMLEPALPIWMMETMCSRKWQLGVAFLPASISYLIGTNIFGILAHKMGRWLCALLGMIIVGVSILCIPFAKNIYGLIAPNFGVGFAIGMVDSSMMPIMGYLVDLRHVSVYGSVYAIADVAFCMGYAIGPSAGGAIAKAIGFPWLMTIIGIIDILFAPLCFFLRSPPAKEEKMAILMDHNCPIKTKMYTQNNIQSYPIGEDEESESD
UniProt Q01827, whole entry: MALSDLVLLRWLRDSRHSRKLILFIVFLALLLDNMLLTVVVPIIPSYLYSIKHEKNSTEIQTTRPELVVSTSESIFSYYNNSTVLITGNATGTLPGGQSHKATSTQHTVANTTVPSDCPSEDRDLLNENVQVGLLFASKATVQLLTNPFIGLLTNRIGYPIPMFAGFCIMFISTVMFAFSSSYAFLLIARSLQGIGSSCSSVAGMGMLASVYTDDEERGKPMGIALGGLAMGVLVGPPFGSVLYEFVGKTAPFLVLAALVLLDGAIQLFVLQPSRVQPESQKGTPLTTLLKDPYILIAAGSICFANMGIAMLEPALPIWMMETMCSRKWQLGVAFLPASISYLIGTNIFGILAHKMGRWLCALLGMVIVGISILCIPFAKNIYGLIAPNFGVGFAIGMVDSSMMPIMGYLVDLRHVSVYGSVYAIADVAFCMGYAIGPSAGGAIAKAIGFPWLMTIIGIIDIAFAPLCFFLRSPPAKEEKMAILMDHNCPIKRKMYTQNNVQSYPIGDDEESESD

A further test addresses VMAT2 receptor (Rattus norvegicus, UniProt Q01827). The following applies: [3H]-tetrabenazine competition, in vitro; cited from earlier work.

On to `COc1cc2c(cc1OC)[C@H]1C[C@@H](O)[C@H](CC(C)C)CN1CC2` [(+)-α-dihydrotetrabenazine, (R,R,R)-3-isobutyl-9,10-dimethyloxy-1,3,4,5,7,11b-hexahydro-2H-pyrido[2,1-a]isoquinolin-2-ol], for which the “% VMAT2 binding” value at VMAT2 is “at least 50%”.

For (-)-α-dihydrotetrabenazine, the inhibitory constant (Ki) on VMAT2 receptor is 2.2 µM.

The values above are taken from patent publication EP3860599B1, “(+)-ALPHA-DIHYDROTETRABENAZINE DOSAGE REGIMEN FOR TREATING MOVEMENT DISORDERS” (Adeptio Pharmaceuticals Limited, priority 2018, dated 2020).
